Source: PMC7950324, “A general method for quantifying ligand binding to unmodified receptors using Gaussia luciferase” (The Journal of Biological Chemistry, 2021)
Values belong to the substance of their own block, whether it stands above or below them.

Chains of the proteins cited; added tags and fusions are not shown. Lines headed by an entry give the natural chain unless they say otherwise; changes in a name come on top.
UniProt P35351: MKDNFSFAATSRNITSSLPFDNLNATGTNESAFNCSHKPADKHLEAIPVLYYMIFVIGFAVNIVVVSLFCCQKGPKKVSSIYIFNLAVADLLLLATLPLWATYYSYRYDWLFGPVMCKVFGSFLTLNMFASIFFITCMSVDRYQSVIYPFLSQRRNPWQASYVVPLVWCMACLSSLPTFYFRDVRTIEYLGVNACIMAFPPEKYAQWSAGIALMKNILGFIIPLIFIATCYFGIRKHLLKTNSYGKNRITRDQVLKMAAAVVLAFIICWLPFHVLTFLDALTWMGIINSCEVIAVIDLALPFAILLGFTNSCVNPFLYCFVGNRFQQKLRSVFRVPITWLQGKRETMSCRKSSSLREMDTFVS

Assays:
[1] = target: epidermal growth factor receptor (EGFR) (UniProt P00533); test: FRET or BRET; PM‒ligand (bystander) BRET with GLuc‒PM, equilibrium competition: live HEK 293T cells with unmodified receptor, GLuc‒PM and DN-Dyn; a fixed fluorescent ligand (1 μM TAMRA‒AngII, 300 ng/ml biotinylated EGF on Alexa Fluor 488 streptavidin, or 100 μg/ml Alexa Fluor 488 human transferrin) and increasing unlabeled ligand, 2 h at room temperature
[2] = target: AT1 angiotensin receptor (AT1R), untagged, rat (rat) (UniProt P25095); test: as above
[3] = target: AT1 angiotensin receptor (AT1R), untagged, rat (rat) (UniProt P25095); test: FRET or BRET; kinetic PM‒ligand (bystander) BRET in real time on live HEK 293T cells with untagged AT1R, GLuc‒PM and DN-Dyn; 1 μM TAMRA‒AngII; dissociation after 15 min and washout with 10 μM candesartan against rebinding; one phase (one site) fits
[4] = target: N-terminally GLuc-tagged AT1 angiotensin receptor (GLuc‒AT1R), rat (rat) (UniProt P25095); test: FRET or BRET; kinetic receptor‒ligand BRET in real time on live HEK 293T cells with GLuc‒AT1R and DN-Dyn; 1 μM TAMRA‒AngII; dissociation after 15 min and washout with 10 μM candesartan against rebinding; one phase (one site) fits
[5] = target: AT1 angiotensin receptor (AT1R), untagged, rat (rat) (UniProt P25095); test: FRET or BRET; PM‒ligand (bystander) BRET at equilibrium with GLuc‒PM: live HEK 293T cells with untagged receptor, GLuc‒PM and DN-Dyn; TAMRA‒AngII in solution (1 μM or increasing concentrations), 2 h at room temperature, modified Krebs–Ringer medium pH 7.4; nonspecific signal with 30 μM candesartan; two site binding curves
[6] = target: N-terminally GLuc-tagged AT1 angiotensin receptor (GLuc‒AT1R), rat (rat) (UniProt P25095); test: FRET or BRET; receptor‒ligand BRET at equilibrium: live adherent HEK 293T cells with N-terminally GLuc- or NanoLuc-tagged AT1R (donor) and DN-Dyn; TAMRA‒AngII in solution (acceptor), 2 h at room temperature, modified Krebs–Ringer medium pH 7.4, read at 27 °C; nonspecific signal with 30 μM candesartan; two site binding curves
[7] = target: AT2 angiotensin receptor (AT2R), untagged, rat (rat) (UniProt P35351); test: FRET or BRET; PM‒ligand (bystander) BRET with GLuc‒PM, equilibrium competition: live HEK 293T cells with unmodified receptor, GLuc‒PM and DN-Dyn; a fixed fluorescent ligand (1 μM TAMRA‒AngII, 300 ng/ml biotinylated EGF on Alexa Fluor 488 streptavidin, or 100 μg/ml Alexa Fluor 488 human transferrin) and increasing unlabeled ligand, 2 h at room temperature
[8] = target: AT1 angiotensin receptor (AT1R), untagged, rat (rat) (UniProt P25095); test: FRET or BRET; PM‒ligand (bystander) BRET at equilibrium with NanoLuc‒PM: live HEK 293T cells with untagged AT1R, NanoLuc‒PM and DN-Dyn; 1 μM TAMRA‒AngII, 2 h at room temperature; specific signal is the part prevented by candesartan

ΔBRET ratio induced by the fluorescent ligand without unlabeled ligand (the 100% value) [1]: 0.0186
Substance: biotinylated EGF conjugated to Alexa Fluor 488 streptavidin (ligand)

IC50 of the high-affinity site (IC50 Hi) [2]: 105 nM
Substance: angiotensin II (AngII) (peptide)

koff [3]: 0.0173 s⁻¹ | kon [3]: 5270 M⁻¹ s⁻¹ | koff [4]: 0.0405 s⁻¹ | kon [4]: 11500 M⁻¹ s⁻¹ | KD of the high-affinity site (K D Hi) [5]: 287 nM | KD of the low-affinity site (K D Lo) [5]: 18500 nM | ΔBRET ratio induced by 1 μM TAMRA–AngII without candesartan (the 100% value) [5]: 0.0168 | KD of the high-affinity site (K D Hi) [6]: 1020 nM | KD of the low-affinity site (K D Lo) [6]: 26400 nM | ΔBRET ratio induced by the fluorescent ligand without unlabeled ligand (the 100% value) [7]: 0.0119 | ΔBRET ratio induced by 1 μM TAMRA–AngII without candesartan (the 100% value) [8]: 0.0062
Substance: red fluorophore–conjugated angiotensin II (TAMRA‒AngII) (peptide)
